According to US11382328B2, “Rapid drug discovery methods for pathogen inactivation” (priority 2019, dated 2022):

System: E. coli strain W3110
Assay: Synergy assays: Biolog chemical sensitivity panels with Group IB metal, coefficient of drug interaction (CDI) from relative growth

Substance | CDI (coefficient of drug interaction) (Gold 5 μM, biocide concentration 4 of 4, E. coli) | CDI (coefficient of drug interaction), silver + biocide (Silver 5.0 μM, 2nd of four biocide concentrations, E. coli) | CDI (coefficient of drug interaction) (Gold section of Table 5, second of three gold concentrations (μM, value not given), biocide concentration 1 of 4)
acriflavine | 1.02 | 1.02 | –
spiramycin | – | – | 1.02
